Experimental data reported in publication PMC5927803 (Pharmacology Research & Perspectives, 2018).

Test system: rat isolated tracheal tissue
Experiment: Antagonism of ACh-evoked contraction: potency and offset time
Settings: ACh concentration-response curve

In the case of `CC(C)[N+]1(C)[C@@H]2CC[C@H]1C[C@@H](OC(=O)C(CO)c1ccccc1)C2` (stereo partly shown) [Ipratropium, reference compound], the nature of antagonism is reported as “surmountable antagonist”.
